Like-named read-outs stand apart in the source and are kept apart here.
Tests used:
D189K hMC4R = D189K hMC4R (Homo sapiens, UniProt P32245, D189K); test: cAMP AlphaScreen antagonist assay; assay type: cell-based
D189E hMC4R [1] = biological target: T1, D189E hMC4R (Homo sapiens, UniProt P32245, D189E); test: cAMP AlphaScreen antagonist assay; assay type: cell-based
D189E hMC4R [2] = biological target: T1, D189E hMC4R; test: cAMP AlphaScreen agonist / inverse agonist assay; assay type: cell-based
D189N hMC4R = D189N hMC4R (Homo sapiens, UniProt P32245, D189N); test: cAMP AlphaScreen agonist / inverse agonist assay; assay type: cell-based
D189S hMC4R = D189S hMC4R (Homo sapiens, UniProt P32245, D189S); test: cAMP AlphaScreen agonist / inverse agonist assay; assay type: cell-based
D189A hMC4R = D189A hMC4R (Homo sapiens, UniProt P32245, D189A); test: cAMP AlphaScreen antagonist assay; assay type: cell-based
D189Q hMC4R = D189Q hMC4R (Homo sapiens, UniProt P32245, D189Q); test: cAMP AlphaScreen antagonist assay; assay type: cell-based
[3] = biological target: T2, human melanocortin-4 receptor (hMC4R), wild type, N-terminal FLAG-tagged (human, UniProt P32245 1-332); test: radioligand binding
[4] = biological target: T2, human melanocortin-4 receptor (hMC4R), …; test: radioligand binding; remark: listed apart in the source

The chains behind the UniProt entries cited, without tags or fusion partners.
UniProt P32245, whole entry D189K: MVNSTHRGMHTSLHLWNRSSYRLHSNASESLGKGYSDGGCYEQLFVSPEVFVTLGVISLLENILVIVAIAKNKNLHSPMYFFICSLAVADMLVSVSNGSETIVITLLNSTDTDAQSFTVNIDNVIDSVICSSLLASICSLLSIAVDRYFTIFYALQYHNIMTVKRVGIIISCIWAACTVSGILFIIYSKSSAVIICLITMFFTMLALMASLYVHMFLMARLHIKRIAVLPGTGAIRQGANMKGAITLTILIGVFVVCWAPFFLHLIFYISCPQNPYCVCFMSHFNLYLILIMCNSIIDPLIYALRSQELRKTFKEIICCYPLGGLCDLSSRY
UniProt P32245, whole entry D189E: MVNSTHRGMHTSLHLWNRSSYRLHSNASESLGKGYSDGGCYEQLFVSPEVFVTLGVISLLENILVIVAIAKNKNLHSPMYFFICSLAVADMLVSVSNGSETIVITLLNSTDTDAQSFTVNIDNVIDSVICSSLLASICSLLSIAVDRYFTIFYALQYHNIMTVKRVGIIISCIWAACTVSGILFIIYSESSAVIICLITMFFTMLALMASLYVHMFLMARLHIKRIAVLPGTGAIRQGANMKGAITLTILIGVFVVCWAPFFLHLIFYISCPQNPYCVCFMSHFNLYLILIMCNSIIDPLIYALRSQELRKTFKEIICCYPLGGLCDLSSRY
UniProt P32245, whole entry D189N: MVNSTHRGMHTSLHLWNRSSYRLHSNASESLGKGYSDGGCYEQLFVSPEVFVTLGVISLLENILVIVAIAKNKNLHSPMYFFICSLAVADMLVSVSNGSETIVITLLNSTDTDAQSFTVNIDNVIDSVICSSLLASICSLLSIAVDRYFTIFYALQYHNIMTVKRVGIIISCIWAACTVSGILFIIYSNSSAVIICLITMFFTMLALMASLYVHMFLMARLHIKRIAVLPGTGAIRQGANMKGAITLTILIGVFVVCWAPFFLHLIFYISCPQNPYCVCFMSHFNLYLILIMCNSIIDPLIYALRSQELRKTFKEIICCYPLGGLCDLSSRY
UniProt P32245, whole entry D189S: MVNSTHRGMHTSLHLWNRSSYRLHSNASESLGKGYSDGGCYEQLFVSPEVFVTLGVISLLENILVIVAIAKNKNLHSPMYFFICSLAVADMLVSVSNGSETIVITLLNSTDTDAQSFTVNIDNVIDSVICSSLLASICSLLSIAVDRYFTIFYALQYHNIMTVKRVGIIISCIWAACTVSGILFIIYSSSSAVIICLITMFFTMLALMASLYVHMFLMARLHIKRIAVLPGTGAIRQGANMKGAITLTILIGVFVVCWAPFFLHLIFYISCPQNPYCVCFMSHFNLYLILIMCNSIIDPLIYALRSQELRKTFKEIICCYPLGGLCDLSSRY
UniProt P32245, whole entry D189A: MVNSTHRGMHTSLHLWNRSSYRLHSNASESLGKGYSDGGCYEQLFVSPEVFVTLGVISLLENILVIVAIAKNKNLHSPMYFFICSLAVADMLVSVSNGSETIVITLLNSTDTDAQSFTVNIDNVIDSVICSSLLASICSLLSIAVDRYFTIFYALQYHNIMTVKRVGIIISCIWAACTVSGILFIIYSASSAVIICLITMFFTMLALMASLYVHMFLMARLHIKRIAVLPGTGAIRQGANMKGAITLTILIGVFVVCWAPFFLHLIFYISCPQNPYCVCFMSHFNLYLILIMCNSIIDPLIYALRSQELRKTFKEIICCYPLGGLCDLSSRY
UniProt P32245, whole entry D189Q: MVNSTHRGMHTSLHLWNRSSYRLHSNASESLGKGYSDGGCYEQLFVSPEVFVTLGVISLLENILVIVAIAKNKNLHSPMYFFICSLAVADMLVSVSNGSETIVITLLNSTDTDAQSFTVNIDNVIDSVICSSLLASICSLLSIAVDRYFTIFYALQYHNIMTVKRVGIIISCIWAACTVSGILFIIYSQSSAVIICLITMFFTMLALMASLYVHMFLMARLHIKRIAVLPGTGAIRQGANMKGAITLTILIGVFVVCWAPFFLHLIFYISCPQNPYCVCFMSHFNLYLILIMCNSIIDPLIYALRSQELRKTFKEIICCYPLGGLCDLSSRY
UniProt P32245, whole entry: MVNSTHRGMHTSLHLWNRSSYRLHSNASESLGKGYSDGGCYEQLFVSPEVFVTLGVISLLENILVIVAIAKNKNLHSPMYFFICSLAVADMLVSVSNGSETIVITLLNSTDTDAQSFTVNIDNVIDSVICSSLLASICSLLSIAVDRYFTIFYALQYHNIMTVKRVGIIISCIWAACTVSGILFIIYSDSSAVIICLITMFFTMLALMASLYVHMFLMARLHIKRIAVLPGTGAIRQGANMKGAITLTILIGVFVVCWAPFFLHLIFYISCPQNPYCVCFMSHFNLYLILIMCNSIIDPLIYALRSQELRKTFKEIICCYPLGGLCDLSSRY

Q: Which Kb (D189K hMC4R) does the source give for `C[C@@H]1NC(=O)[C@@H](CN)NC(=O)[C@H](Cc2ccccc2)NC(=O)[C@H](Cc2ccccc2)NC(=O)[C@H](CCCNC(=N)N)NC(=O)[C@@H]2CCCN2C(=O)[C@H]2CCCN2C(=O)[C@H](Cc2ccccc2)NC1=O` [MDE3–119-7c, c[Pro-Arg-Phe-Phe-DDap-Ala-Phe-DPro]] here?
A: The Kb was 20 nM.

Q: What about the Kb (D189E hMC4R [1]) of the same molecule?
A: The Kb was 1.58 nM.

Q: And the EC50 (D189E hMC4R [2])?
A: Its EC50 is 4 ± 2 nM.

Q: And the EC50 (D189N hMC4R)?
A: The EC50 was 10 ± 2 nM.

Q: And the EC50 (D189S hMC4R)?
A: The EC50 was 14 ± 8 nM.

Q: `C[C@@H]1NC(=O)[C@H](CN)NC(=O)[C@H](Cc2ccccc2)NC(=O)[C@H](Cc2ccccc2)NC(=O)[C@H](CCCNC(=N)N)NC(=O)[C@@H]2CCCN2C(=O)[C@H]2CCCN2C(=O)[C@H](Cc2ccccc2)NC1=O` [MDE3–119-8c, c[Pro-Arg-Phe-Phe-Dap-Ala-Phe-DPro]] was tested. Which Kb (D189A hMC4R) did it give?
A: The Kb was 50.1 nM.

Q: What about the EC50 (D189E hMC4R [2]) of the same molecule?
A: The EC50 was 3.4 ± 2.2 nM.

Q: What about the EC50 (D189N hMC4R) of the same molecule?
A: Its EC50 is 190 ± 188 nM.

Q: What about the Kb (D189Q hMC4R) of the same molecule?
A: The Kb was 7.94 nM.

Q: What about the EC50 (D189S hMC4R) of the same molecule?
A: Its EC50 is 8 ± 5 nM.

Q: How did the IC50 [3] turn out when PRFFVAFP (DPro at position 8; cyclized head-to-tail through the DPro-Pro motif) [MDE3–119-10c] was run?
A: Its IC50 is 5400 nM.

Q: What about the IC50 [4] of the same molecule?
A: Its IC50 is 2400 nM.
